US8466167B2, “Compounds and compositions as TLR activity modulators” (IRM LLC, priority 2008, dated 2013)

Experiment: Body weight of mice after immunization
Settings: day 1, day 2, day 14 and day 28 after immunization

Cc1ccc2c(c1)nc(N)c1ncc(CCc3ccc(N(C)C)cc3)cc12 [Example 169, 2-(4-(dimethylamino)phenethyl)-8-methylbenzo[f][1,7]naphthyridin-5-amine]
weight drop, 3MenB/MF59 versus 3MenB/MF59+ compound: did not produce a statatistically significant different in weight drop
